Key:
in vitro = conditions: human, CC50 (μM)
[1] = test system: Human hepatocellular carcinoma (HepG2) cells

| SMILES | CC50 (in vitro) | CC50 [1] |
| --- | --- | --- |
| CC(=O)O[C@@H]1C[C@H]2O[C@@H]3C=C(C)CC[C@]3(C)[C@]1(C)[C@]21CO1 [Compound 1, Trichoderonin] | < 1.56 µM | – |
| COc1ccc(C[C@H]2NC[C@H](O)[C@H]2OC(C)=O)cc1 [Compound 2, Anisomycin] | 0.82 µM | < 1560 nM |

Source: publication PMC3988658 (Pathogens and disease, 2014)
